Where two headings read alike, the source gives them in different places.
System: patients with serotonin reuptake inhibitor-resistant obsessive-compulsive disorder

Q: What does the source list for `Nc1nc2ccc(OC(F)(F)F)cc2s1` [Riluzole, riluzole]?
A: HAM-A scores over time (F1,11.2=7.9, p=0.017): improved significantly; Clinician administered CGI/GI scores over time (F1,16.2=20.99, p=0.0003): significantly improved; effect size in the comparisons of Y-BOCS between baseline and week 4 (above-described riluzole study (Coric et al. 2005)): 0.86; Mean AST (baseline): 19.1 (±5.7); Mean CGI/GI (baseline): 4 (±0); Percent reduction in baseline Y-BOCS scores at end of study in responders (five responders): 38-76%; Mean HAM-A at baseline (group of 13 patients, baseline): 18.2 (±6.2); Mean HAM-D at baseline (group of 13 patients, baseline): 30 (113.7); Mean Y-BOCS at baseline (group of 13 patients, baseline): 30.7 (±6.6); Mean HAM-D at end of study (group of 13 patients, end of study): 19.7 (±6.0); Mean Y-BOCS at end of study (group of 13 patients, end of study (6-12 weeks)): 17.7 (±8.6); increase in ALT in one patient (one patient, asymptomatic): nine-fold increase; repeat ALT in that patient (same patient, repeat test, normalized to within two times the upper limits of normal by week three): four-fold increase; patients with >35% reduction in Y-BOCS scores (seven of thirteen patients): 54%; reductions in baseline HAM-D scores by the end of the study (six out of thirteen patients with clinically significant improvement): 36-83%; Mean CGI/GI (week 6): 3.2 (±0.6); Mean CGI/GI (week 9): 2.66 (±0.5); Mean CGI/GI (week 12): 2.33 (±1)
